Measured values as given in BindingDB's records for 2296026.

Chains of the proteins cited; added tags and fusions are not shown. Lines headed by an entry give the natural chain unless they say otherwise; changes in a name come on top. A line that says so, or that is headed by a name, gives the form on record, which may keep a tag or linker. Residues count along the entry.
UniProt P08482: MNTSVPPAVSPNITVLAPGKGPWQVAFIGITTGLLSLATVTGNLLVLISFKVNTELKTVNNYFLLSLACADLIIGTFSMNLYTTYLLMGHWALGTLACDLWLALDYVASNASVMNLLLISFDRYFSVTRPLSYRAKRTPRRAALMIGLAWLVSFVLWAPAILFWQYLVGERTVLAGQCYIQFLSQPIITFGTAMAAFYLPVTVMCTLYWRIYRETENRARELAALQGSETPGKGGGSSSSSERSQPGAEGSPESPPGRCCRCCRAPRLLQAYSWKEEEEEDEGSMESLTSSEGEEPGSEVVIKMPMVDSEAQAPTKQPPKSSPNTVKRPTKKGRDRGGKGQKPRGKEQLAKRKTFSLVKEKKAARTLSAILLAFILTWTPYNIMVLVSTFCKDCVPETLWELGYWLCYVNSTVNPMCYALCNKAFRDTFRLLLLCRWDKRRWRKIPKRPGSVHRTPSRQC
UniProt P08483, whole entry: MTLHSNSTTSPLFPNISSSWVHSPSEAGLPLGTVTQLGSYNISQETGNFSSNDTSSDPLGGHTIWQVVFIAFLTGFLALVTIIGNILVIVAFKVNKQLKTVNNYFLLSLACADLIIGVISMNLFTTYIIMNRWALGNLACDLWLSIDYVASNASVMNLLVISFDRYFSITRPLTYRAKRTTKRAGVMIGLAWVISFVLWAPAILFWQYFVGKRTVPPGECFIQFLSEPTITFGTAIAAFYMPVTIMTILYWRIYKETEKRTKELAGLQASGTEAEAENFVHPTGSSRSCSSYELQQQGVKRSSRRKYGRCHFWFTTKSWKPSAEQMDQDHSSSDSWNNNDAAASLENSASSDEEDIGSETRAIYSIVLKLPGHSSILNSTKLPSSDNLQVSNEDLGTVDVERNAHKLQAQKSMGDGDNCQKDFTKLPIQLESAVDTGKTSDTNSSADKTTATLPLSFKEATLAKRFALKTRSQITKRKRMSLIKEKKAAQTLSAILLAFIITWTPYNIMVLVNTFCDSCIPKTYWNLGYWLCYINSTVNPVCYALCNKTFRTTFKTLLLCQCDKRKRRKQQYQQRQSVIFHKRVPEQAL
UniProt P08485, 3-478 with tags or gaps: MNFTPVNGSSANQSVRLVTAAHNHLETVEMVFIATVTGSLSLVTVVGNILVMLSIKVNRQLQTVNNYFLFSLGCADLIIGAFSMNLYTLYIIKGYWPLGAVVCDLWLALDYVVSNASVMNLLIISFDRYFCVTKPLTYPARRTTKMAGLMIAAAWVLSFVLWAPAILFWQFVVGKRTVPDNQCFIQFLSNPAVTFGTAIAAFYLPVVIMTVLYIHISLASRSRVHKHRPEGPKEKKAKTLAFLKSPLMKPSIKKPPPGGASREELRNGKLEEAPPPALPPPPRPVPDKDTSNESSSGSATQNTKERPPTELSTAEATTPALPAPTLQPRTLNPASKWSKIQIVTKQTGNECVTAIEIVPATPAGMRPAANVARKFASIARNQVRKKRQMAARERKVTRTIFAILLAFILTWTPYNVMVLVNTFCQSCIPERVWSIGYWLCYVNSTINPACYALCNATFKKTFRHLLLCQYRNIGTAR
UniProt P08911, whole entry: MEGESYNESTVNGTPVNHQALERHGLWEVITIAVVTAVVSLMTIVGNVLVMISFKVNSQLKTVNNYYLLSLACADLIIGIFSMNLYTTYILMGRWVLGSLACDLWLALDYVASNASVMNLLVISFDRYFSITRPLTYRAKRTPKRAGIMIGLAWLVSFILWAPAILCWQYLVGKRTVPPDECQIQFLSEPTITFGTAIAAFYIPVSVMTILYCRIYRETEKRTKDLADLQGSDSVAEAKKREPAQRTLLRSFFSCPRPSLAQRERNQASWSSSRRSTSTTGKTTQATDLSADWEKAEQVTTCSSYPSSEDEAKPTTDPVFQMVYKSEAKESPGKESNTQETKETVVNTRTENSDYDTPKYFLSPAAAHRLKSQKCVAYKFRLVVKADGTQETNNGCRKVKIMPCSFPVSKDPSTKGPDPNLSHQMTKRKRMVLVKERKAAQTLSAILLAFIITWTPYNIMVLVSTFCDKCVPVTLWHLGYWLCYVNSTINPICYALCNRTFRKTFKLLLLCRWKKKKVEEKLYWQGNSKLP
UniProt P10980, whole entry: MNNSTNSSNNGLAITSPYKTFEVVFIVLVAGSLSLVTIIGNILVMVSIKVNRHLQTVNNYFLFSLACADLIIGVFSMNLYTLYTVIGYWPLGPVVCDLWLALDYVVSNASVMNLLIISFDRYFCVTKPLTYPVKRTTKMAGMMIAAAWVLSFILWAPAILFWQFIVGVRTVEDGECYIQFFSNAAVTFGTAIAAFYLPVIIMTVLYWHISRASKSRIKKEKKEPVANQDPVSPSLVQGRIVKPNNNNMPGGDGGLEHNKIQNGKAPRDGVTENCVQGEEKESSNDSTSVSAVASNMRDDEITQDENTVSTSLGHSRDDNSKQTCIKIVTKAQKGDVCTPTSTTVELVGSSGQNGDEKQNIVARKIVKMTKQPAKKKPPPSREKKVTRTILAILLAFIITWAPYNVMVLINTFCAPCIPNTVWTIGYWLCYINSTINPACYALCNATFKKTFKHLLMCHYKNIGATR

Biological target: Muscarinic acetylcholine receptor M1/M2/M3/M4/M5 (UniProt P08482+P08483+P08485+P08911+P10980)
Assay: ASSAY_NAME: ChEMBL_138261 (CHEMBL743978) […]

C[N+]12CCC(CC1)C(OC(=O)C(O)(CN1CCOCC1)c1ccccc1)C2 (stereo unspecified)
Ki: 3.98 µM
